Experimental data as given in article PMC12903857 (2026).

Molecular target: T1, 14-3-3σ, tagged with a Twin-Strep tag (UniProt P31947 1-248)
T1 chain: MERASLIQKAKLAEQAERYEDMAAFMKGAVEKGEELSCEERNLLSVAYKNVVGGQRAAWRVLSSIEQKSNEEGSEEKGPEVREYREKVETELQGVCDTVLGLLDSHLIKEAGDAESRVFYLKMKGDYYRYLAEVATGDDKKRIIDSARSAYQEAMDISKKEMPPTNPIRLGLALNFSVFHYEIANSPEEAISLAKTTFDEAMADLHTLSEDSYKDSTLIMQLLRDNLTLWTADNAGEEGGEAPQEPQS
Assay: SPR

DRSSSAPNVHIN (acetylated; phosphoserine at 365) [acetylated 12-mer B-RAF peptide]
Kd: 2700 nM
